# Measured values reported in ChEMBL document CHEMBL2046432, “Novel 5-substituted benzyloxy-2-arylbenzofuran-3-carboxylic acids as calcium activated chloride channel inhibitors” (Bioorg Med Chem, 2012).
# Target: T1, Anoctamin-1 (Homo sapiens, UniProt Q5XXA6)
# T1 sequence (Q5XXA6 whole entry): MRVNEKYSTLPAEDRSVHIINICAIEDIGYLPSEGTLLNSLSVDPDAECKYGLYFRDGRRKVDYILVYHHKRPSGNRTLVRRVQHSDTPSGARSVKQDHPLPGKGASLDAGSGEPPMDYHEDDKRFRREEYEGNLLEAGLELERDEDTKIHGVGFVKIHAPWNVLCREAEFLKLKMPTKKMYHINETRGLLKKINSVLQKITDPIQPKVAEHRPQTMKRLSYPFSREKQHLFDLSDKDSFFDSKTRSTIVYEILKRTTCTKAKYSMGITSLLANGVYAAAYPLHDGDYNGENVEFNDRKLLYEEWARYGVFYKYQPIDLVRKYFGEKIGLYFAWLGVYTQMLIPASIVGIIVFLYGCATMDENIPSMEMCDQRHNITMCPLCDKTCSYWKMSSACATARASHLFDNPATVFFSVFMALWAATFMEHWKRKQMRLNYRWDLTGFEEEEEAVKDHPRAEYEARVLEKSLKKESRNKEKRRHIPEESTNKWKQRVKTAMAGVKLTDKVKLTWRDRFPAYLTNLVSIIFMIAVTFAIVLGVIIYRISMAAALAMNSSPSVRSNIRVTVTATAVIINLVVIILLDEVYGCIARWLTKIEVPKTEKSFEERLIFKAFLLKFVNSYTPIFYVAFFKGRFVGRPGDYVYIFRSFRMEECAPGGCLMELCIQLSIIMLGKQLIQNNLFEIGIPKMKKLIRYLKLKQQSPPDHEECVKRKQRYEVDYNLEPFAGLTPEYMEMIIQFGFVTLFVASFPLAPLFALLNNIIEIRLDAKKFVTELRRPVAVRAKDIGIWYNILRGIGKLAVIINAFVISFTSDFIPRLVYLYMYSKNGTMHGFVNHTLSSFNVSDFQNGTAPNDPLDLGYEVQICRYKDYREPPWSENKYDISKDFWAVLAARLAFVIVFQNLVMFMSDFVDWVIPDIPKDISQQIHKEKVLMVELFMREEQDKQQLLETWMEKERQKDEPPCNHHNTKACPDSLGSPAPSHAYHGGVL
# Assay: Inhibition of human TMEM16A transfected in FRT cells assessed as iodide influx using YFP-F46L/H148Q/I152L halide sensor after 10 mins by spectrofluorometric analysis
# Format: cell-based
# Summary of the method: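 FRT cells stably co-expressing TMEM16A and YFP-F46L/H148Q/I152L, plated 20,000 cells/well, cultured 2 days. Washed in PBS, compounds added at several concentrations for 10 min. Fluorescence recorded 2 s baseline, then 140 mM iodide plus ATP (200 μM) solution added to raise calcium. Initial iodide influx rate fitted by nonlinear regression; IC50 mean ± S.E., n = 3.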
row,IC50,Structure (SMILES)
1,23 µM,Cc1ccc(-c2oc3ccc(OCc4c(F)cccc4F)cc3c2C(=O)O)cc1
2,9 µM,Cc1ccc(-c2oc3ccc(OCc4ccc(F)c(F)c4)cc3c2C(=O)O)cc1
3,10.4 µM,O=C(O)c1c(-c2ccc3ccccc3c2)oc2ccc(OCc3cccc(C(F)(F)F)c3)cc12
4,5.2 µM,O=C(O)c1c(-c2ccc3ccccc3c2)oc2ccc(OCc3ccccc3Br)cc12
